Measurements as given in patent publication US8633196B2, “Benzenesulfonamide compounds, method for synthesizing same, and use thereof in medicine as well as in cosmetics” (Galderma Research & Development, priority 2009, dated 2014).

The chains behind the UniProt entries cited, without tags or fusion partners. Residues count along the entry.
UniProt O14672, 214-748, species assumed: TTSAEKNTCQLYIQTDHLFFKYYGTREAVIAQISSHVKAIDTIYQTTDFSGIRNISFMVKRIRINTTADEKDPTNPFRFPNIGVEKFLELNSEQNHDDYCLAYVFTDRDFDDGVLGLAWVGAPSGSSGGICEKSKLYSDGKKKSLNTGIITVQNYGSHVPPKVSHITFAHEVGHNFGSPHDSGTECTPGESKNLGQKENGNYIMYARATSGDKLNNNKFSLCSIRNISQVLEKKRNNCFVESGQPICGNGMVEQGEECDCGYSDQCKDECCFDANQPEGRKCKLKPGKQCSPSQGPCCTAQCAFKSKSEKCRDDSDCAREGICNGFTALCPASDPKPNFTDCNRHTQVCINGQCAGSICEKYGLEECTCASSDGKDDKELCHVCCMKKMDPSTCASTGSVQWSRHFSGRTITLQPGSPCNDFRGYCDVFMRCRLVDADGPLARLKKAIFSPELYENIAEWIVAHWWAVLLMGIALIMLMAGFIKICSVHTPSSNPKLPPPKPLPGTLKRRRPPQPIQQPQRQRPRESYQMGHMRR

Target: ADAM10 (Homo sapiens (Human), UniProt O14672)
Assay: Selectivity assay, ADAM10

Row | SMILES | pIC50
1 | Cc1cc(COc2ccc(S(=O)(=O)NC[C@@H](C(=O)NO)N3CCN(S(C)(=O)=O)CC3)cc2)c2ccccc2n1 [Example 5, (S)-N-Hydroxy-2-(4-methanesulfonylpiperazin-1-yl)-3-[4-(2-methylquinolin-4-ylmethoxy)benzenesulfonylamino]propionamide] | < 5.00
2 | Cc1ccc(CN2CCN([C@@H](CNS(=O)(=O)c3ccc(OCc4cc(C)nc5ccccc45)cc3)C(=O)NO)CC2)cc1 [Example 21, (S)-N-hydroxy-2-[4-(4-methylbenzyl)piperazin-1-yl]-3-[4-(2-methylquinolin-4-ylmethoxy)benzenesulfonylamino]propionamide] | < 5.00

pIC50: −log10 of the molar value.
